Data taken from US8343971B2, “Pharmacologically-active vanilloid carbamates” (dated 2013).
Where two headings read alike, the source gives them in different places.

Amino acid sequences for entries named in this document (tags omitted).
UniProt O00519, whole entry, looked up: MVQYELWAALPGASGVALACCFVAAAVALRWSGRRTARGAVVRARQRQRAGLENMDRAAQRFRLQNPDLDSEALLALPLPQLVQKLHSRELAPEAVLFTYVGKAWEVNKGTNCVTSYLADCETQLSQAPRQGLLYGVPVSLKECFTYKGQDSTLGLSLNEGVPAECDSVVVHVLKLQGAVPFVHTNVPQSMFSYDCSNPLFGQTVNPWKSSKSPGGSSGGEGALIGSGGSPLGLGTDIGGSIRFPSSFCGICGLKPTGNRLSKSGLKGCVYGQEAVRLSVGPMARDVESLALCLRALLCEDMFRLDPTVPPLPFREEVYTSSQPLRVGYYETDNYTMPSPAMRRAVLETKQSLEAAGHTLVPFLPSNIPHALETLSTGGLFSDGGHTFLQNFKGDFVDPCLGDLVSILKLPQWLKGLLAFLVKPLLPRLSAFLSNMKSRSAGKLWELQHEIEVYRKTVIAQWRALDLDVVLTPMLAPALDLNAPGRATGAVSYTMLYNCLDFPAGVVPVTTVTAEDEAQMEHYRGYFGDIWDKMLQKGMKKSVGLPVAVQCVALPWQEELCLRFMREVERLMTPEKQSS

What was measured:
human recombinant FAAH = human recombinant FAAH (Homo sapiens, UniProt O00519); assay: FAAH Inhibitor Screening Assay Kit (Cayman), fluorescence-based, AMC-arachidonoyl amide hydrolysis
[1] = test system: TPA-induced mouse ear edema; assay: Mouse ear inflammation (edema) assay, TPA-induced; details: ear punch weight after 6 hours; for Rel. TPA Inflammatory Suppression: test compound 1-2 micromoles applied to ear 10 minutes prior to TPA, relative percent inhibition of edema; for Rel. TPA Inflammatory Suppression (percent): reference drugs applied to ear 10 minutes prior to TPA
[2] = test system: CEES-induced mouse ear edema; assay: Mouse ear inflammation (edema) assay, CEES-induced; details: test compound 1-2 micromoles applied to ear 10 minutes prior to CEES (2.5 mg/ml); ear punch weight after 6 hours
[3] = read-out: FAAH (μM, IC50), 20 micromolar AMC-arachidonoyl amide, 30 min at 37° C., pH 9.0

Molecule	IC50 (human recombinant FAAH; [3]) [µM]	Rel. TPA Inflammatory Suppression [1]	Rel. TPA Inflammatory Suppression (percent) [1] [%]	IC50 (human recombinant FAAH; read-out: FAAH IC50) [µM]	suppression of CEES-induced ear edema [2] [%]
CCCCNC(=O)OCc1ccc(OC(C)=O)c(OC)c1	338	*** (those >60% are marked (* * *))			
CCOC(=O)CNC(=O)OCc1ccc(OC(C)=O)c(OC)c1	> 900	*** (those >60% are marked (* * *))			
COc1cc(COC(=O)NC2CCCCC2)ccc1OC(C)=O	104				
COCCNC(=O)OCc1ccc(OC(C)=O)c(OC)c1		* (those from 5% to 50% suppression are coded (*))			
CCCCCCCNC(=O)OCc1ccc(OC(C)=O)c(OC)c1	67	** (those >50% are (* *))			
CCCCCCCCNC(=O)OCc1ccc(OC(C)=O)c(OC)c1	88	* (those from 5% to 50% suppression are coded (*))			
O=C(O)Cc1ccccc1Nc1c(Cl)cccc1Cl			35		
COc1cc(COC(=O)NCCC(C)(C)C)ccc1OC(C)=O	25	*** (those >60% are marked (* * *))			
CCCCCCCCCCCCNC(=O)OCc1ccc(OC(C)=O)c(OC)c1	8	**** (>70% were scored (* * * *))		8	
CCCCN(CCCC)C(=O)OCc1ccc(OC(C)=O)c(OC)c1	135	** (those >50% are (* *))			
COc1cc(COC(=O)NCC2CCCCC2)ccc1OC(C)=O	85	** (those >50% are (* *))			
COc1cc(COC(=O)NCc2ccccc2)ccc1OC(C)=O	28	** (those >50% are (* *))			
COc1cc(COC(=O)NCCN2CCOCC2)ccc1OC(C)=O	410	* (those from 5% to 50% suppression are coded (*))			
CCCCC(CC)CNC(=O)OCc1ccc(OC(C)=O)c(OC)c1 (centres unmarked)	31	**** (>70% were scored (* * * *))			
CCNC(=O)OCc1ccc(OC(C)=O)c(OC)c1	> 900	* (those from 5% to 50% suppression are coded (*))			
COc1cc(COC(=O)NCCOc2ccccc2)ccc1OC(C)=O	21	***** (compounds which actively suppressed the edema by >80% were scored (* * * * *))			51
CCCCCCCCCCNC(=O)OCc1ccc(OC(C)=O)c(OC)c1	62	* (those from 5% to 50% suppression are coded (*))			
(S)-Naproxen			42		
COc1cc(COC(=O)NC2Cc3ccccc3C2)ccc1OC(C)=O	100	**** (>70% were scored (* * * *))			
COc1cc(COC(=O)NCCc2ccccc2)ccc1OC(C)=O	8	***** (compounds which actively suppressed the edema by >80% were scored (* * * * *))			56
CCCCCCNC(=O)OCc1ccc(OC(C)=O)c(OC)c1	333	** (those >50% are (* *))			
